# Test results from patent US7083777B1, “Immunomodulating polymers” (priority 1999, dated 2006).
# Tested on: B. fragilis
# Test: Protection against abscess formation by recombinant cytokine given intracardially at challenge
# Format: in vivo, rat
# [1] = 100 pg intracardiac at time of challenge, 10^8 cfu B. fragilis, Experiment A
substance,measurement,setting,value
IL-2: recombinant interleukin 2,Abscess formation (%),"10 pg, Experiment B",60%
same,No. animals with abscess/total,"10 pg, Experiment B",6/10
same,Abscess formation (%),[1],27%
same,No. animals with abscess/total,[1],10/37
same,Abscess formation (%),"100 pg, Experiment B",12.5%
same,No. animals with abscess/total,"100 pg, Experiment B",1/8
same,Abscess formation (%),"1000 pg, Experiment B",25%
same,No. animals with abscess/total,"1000 pg, Experiment B",2/8
same,Protection against abscess formation (in words),"1000, 100 and 10 pg",dose-dependent manner
